Results on 15 molecules are retold here after article PMC9396613 (ACS chemical biology, 2022).

The chains behind the UniProt entries cited, without tags or fusion partners. Where a name states a change or a piece, a line headed by the entry shows the natural chain unless it says otherwise.
UniProt Q9UGI6, whole entry: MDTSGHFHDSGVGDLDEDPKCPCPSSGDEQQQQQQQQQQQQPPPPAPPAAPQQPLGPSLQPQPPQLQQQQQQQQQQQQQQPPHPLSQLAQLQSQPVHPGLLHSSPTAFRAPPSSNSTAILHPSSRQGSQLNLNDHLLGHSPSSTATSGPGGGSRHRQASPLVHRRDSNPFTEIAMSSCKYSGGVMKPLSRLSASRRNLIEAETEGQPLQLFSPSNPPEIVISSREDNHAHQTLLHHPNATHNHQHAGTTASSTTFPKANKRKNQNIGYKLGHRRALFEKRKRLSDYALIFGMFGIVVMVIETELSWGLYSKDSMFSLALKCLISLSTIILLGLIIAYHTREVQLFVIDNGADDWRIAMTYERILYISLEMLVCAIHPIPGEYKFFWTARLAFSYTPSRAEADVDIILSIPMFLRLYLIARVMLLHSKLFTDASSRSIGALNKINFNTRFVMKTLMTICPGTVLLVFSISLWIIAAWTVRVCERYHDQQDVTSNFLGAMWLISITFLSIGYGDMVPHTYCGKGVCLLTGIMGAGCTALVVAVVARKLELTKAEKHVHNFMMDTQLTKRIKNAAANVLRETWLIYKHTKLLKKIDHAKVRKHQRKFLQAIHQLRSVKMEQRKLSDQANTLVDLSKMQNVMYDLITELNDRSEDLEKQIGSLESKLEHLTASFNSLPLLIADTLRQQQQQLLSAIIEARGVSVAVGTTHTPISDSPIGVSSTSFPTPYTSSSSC
UniProt Q9UGI6, whole entry I568V: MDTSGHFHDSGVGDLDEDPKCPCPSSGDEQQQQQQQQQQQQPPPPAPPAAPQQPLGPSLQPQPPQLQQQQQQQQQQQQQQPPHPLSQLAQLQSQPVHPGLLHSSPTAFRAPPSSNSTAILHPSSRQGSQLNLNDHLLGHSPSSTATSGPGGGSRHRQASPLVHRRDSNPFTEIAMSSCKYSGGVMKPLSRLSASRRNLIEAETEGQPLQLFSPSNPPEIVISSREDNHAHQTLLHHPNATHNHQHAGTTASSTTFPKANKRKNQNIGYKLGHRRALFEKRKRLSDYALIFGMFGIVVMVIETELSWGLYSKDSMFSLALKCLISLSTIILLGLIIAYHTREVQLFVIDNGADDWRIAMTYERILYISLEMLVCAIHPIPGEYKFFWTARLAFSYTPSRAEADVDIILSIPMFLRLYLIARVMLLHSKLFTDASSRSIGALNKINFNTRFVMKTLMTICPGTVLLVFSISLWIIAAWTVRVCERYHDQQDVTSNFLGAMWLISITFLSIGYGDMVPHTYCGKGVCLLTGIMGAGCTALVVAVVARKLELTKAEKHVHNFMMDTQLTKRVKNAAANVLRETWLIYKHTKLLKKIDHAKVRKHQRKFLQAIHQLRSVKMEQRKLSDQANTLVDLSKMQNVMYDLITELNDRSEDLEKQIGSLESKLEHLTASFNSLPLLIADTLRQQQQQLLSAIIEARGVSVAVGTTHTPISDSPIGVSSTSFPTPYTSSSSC
UniProt P70604, whole entry V420I: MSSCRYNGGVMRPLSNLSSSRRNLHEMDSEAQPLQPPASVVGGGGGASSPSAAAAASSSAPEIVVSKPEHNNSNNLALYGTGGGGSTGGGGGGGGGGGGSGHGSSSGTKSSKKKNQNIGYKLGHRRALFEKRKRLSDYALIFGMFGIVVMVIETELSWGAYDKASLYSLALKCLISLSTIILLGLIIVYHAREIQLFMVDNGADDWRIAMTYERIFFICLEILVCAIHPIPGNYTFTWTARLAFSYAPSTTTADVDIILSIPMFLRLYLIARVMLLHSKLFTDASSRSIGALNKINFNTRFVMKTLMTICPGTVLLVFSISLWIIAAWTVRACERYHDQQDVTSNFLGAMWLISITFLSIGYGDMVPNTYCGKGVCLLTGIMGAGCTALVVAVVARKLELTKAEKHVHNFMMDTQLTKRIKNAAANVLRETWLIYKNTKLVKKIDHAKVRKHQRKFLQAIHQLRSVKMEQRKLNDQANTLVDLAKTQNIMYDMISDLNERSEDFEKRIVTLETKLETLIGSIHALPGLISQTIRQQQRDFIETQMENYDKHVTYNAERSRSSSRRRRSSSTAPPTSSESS

One test deals with rat KCa2.2a channels. The note with it: read-out: EC50 on rat KCa2.2a (mean ± SD); cited from earlier work.
Test [1] addresses T1, KCa2.3 channels (Homo sapiens, UniProt Q9UGI6). The test is described as follows: Inside-out patch clamp, potentiation of human KCa2.3 channels expressed in HEK293 cells. It is filed as cell-based. Conditions: for EC50: read-out: EC50 on human KCa2.3 (mean ± SD); for EC50 / EC50 on human KCa2.3 (mean ± SD, μM): inside-out patch, HEK293 cells, 0.15 μM Ca2+, currents at −90 mV, mean ± SD; for selectivity for human KCa2.3 channels over rat KCa2.2a channels: ratio of EC50 values, Table 1.

Test [2] deals with KCa2.3_I568V mutant channel (Homo sapiens, UniProt Q9UGI6, I568V). Nature of the test: Inside-out patch clamp, potentiation of mutant human KCa2.3_I568V channels.
A further test deals with KCa2.2a_V420I (Rattus norvegicus, UniProt P70604, V420I). The test is described as follows: Inside-out patch clamp, potentiation of mutant rat KCa2.2a_V420I channels.
The test system of test [3] is ET cells. The test is described as follows: Flow-induced cytosolic Ca2+ measurements (Fura-2AM) in ET cells. It is filed as cell-based, mouse. The note with it: 20 μM.
The subject of test [4] is ET cells. Nature of the test: Cilia length measurement in ET cells by immunostaining. It is filed as cell-based, mouse.
Test [5] concerns the target T1, KCa2.3 channels. The note with it: read-out: EC50 on human KCa2.3 (mean ± SD); cited from earlier work.
The mark [6] stands for this setting: normalized to maximal currents induced by 10 μM Ca2+.

“And” between values parts separate entries of the source, which are not always exact repeats. Identical values can stand only once. Like-named read-outs stand apart in the source and are kept apart here.

`Cc1cc(C)n(-c2cc(Nc3cc(Cl)ccc3F)nc(N)n2)n1`: the EC50 in the test with rat KCa2.2a channels and on KCa2.3 channels [1] was over 100 µM in each case.

As to `Cc1cc(C)n(-c2nc(N)cc(Nc3ccc(F)c(Cl)c3)n2)n1`, the “fold less sensitive, KCa2.3_I568V than KCa2.3_WT” value in test [2] (EC50 of mutant versus WT) was ~ 20 fold. In addition, the “Emax on KCa2.3_I568V compared with KCa2.3_WT” value in test [2] (setting [6]) is recorded as “did not affect the Emax values”. In addition, the EC50 in test [2] (read-out: EC50 for potentiation of KCa2.3_I568V mutant channel, 0.15 μM Ca2+, mean ± SD, n = 6) worked out at 6.2 µM. Also, on KCa2.2a_V420I (EC50 for potentiation, Figure S4E,F), the “sensitivity of KCa2.2a_V420I channel to compound versus KCa2.2a_WT” value was “increased the sensitivity”. The “Emax on KCa2.2a_V420I versus KCa2.2a_WT” value at KCa2.2a_V420I (setting [6]) was “did not change”. Besides, in the test with ET cells [3], the “flow-induced peak Ca2+ values compared with control” value was “significantly increased”. In addition, in the test on ET cells [3] (shear stress 5 dyn/cm2), the “flow-induced cytosolic Ca2+ transients compared with control” value is on record as “more prominent Ca^2+ transients”. Besides, in the test on rat KCa2.2a channels, the EC50 was 6.7 µM. This molecule also had a cilia length with ET cells [4] (20 μM for two days, acetylated-α-tubulin staining, mean ± SD) of 6.1 ± 0.6 μm. In addition, in the test on ET cells [4] (20 μM, ciliary marker Arl13b), the “cilia length (Arl13b marker)” value is “increased cilia length”. Further, at KCa2.3 channels [1], the “EC50 on human KCa2.3 (mean ± SD, μM)” value was “submicromolar”; the “selectivity for human KCa2.3 channels over rat KCa2.2a channels” value is ~ 21 fold; the EC50 was 0.3 µM and 0.31 µM.

Turning to `Cc1cc(Nc2cccc(F)c2F)nc(-n2nc(C)cc2C)n1`, the EC50 is 5 µM in the test with rat KCa2.2a channels and 2.7 µM on KCa2.3 channels [1].

For the molecule `Cc1cc(C)n(-c2cc(Nc3cccc(Cl)c3)nc(N)n2)n1`, the EC50 in the test on rat KCa2.2a channels and on KCa2.3 channels [1] was over 100 µM each time.

Take `Cc1cc(Nc2ccc(F)c(Cl)c2)nc(-n2nc(C)cc2C)n1`: the EC50 was 1 µM in the test on rat KCa2.2a channels and 0.2 µM on KCa2.3 channels [5].

Regarding `Cc1cc(Nc2ccc([N+](=O)[O-])cc2)nc(-n2nc(C)cc2C)n1`, the EC50 in the test on rat KCa2.2a channels and at KCa2.3 channels [1] was over 100 µM in each case.

Turning to `Cc1cc(C)n(-c2cc(Nc3ccc(C(F)(F)F)c(Cl)c3)nc(N)n2)n1`, the EC50 in the test on rat KCa2.2a channels and on KCa2.3 channels [1] was over 100 µM throughout.

For the molecule `Cc1cc(Nc2cc(F)ccc2F)nc(-n2nc(C)cc2C)n1`, the EC50 in the test with rat KCa2.2a channels was 1.9 µM; on KCa2.3 channels [1] it was 1.5 µM.

`Cc1cc(C)n(-c2cc(Nc3ccc(Cl)cc3F)nc(N)n2)n1`: the EC50 in the test with rat KCa2.2a channels and on KCa2.3 channels [1] was over 100 µM throughout.

Regarding `Cc1cc(Nc2ccc(Cl)cc2F)nc(-n2nc(C)cc2C)n1`, the EC50 is 2 µM with rat KCa2.2a channels and 1.2 µM at KCa2.3 channels [1].

For the molecule `Cc1cc(C)n(-c2cc(Nc3cc(F)ccc3Cl)nc(N)n2)n1`, the EC50 in the test on rat KCa2.2a channels and at KCa2.3 channels [1] was over 100 µM throughout.

Consider `Cc1cc(C)n(-c2cc(Nc3cc(F)ccc3F)nc(N)n2)n1`, for which the EC50 with rat KCa2.2a channels and on KCa2.3 channels [1] was over 100 µM in each case.

As for `Cc1cc(C)n(-c2cc(Nc3ccc(F)c(Cl)c3)nc(N)n2)n1`, the EC50 in the test with rat KCa2.2a channels and on KCa2.3 channels [1] was over 100 µM throughout.

Regarding `Cc1cc(Nc2ccc(S)cc2)nc(-n2nc(C)cc2C)n1`, the 50% effective concentration (EC50) in the test with rat KCa2.2a channels and on KCa2.3 channels [1] was over 100 µM in each case.

As for `Cc1cc(Nc2ccc(C(F)(F)F)c(Cl)c2)nc(-n2nc(C)cc2C)n1`, in the test with rat KCa2.2a channels, the EC50 is 3.3 µM. Besides, on KCa2.3 channels [1], the “EC50 on human KCa2.3 (mean ± SD, μM)” value was “submicromolar”; the “selectivity for human KCa2.3 channels over rat KCa2.2a channels” value is ~ 6.3 fold; the EC50 was determined as 0.52 µM.
